The values that follow come from patent publication EP1614683B1, “Indazole compounds and pharmaceutical compositions for inhibiting protein kinases, and methods for their use” (priority 1999, dated 2001).

Series [1] relates to lung cancer cells (line MV522). Description: Cancer cell proliferation (MV522) assay. The format is cell-based. The settings on record: MV522, read-out: MV522 IC50 (µM).

Each structure is given as a SMILES string. Like-named read-outs stand apart in the source and are kept apart here.

Regarding `Cc1ccc2cc(NC(=O)c3ccccc3Sc3ccc4c(/C=C/c5ccccc5)n[nH]c4c3)ccc2n1` [Reference Example 38(a), 6-[2-(2-Methylquinol-6-ylcarbamoyl)phenylsulfanyl]-3-E-(2-styryl)-1H-indazole], the half-inhibitory concentration (IC50) in series [1] is 10.7 µM.
Turning to `O=C(Nc1cccc(Oc2ccc3c(/C=C/c4c[nH]cn4)n[nH]c3c2)c1)c1ccccc1` [Reference Example 32(a), 6-[3-benzamidophenoxy]-3-E-[2-(1H-imidazol-4-yl)ethenyl]-1H-indazole], the T1/2 by setting is: (IP, 25 mg/kg, vehicle PEG400:H2O pH 2.3 30:70) 3.7 h; (PO, 50 mg/kg, vehicle PEG400:H2O pH 2.3 30:70) 1.1 h.
With `Cc1ccc2cc(NC(=O)c3ccccc3Sc3ccc4c(/C=C/c5ccccn5)n[nH]c4c3)ccc2n1` [Reference Example 33(b)], in series [1], the half-maximal inhibitory concentration (IC50) stood at 15 µM.
`O=C(NCc1cccc(F)c1)c1ccccc1Sc1ccc2c(/C=C/c3ccccn3)n[nH]c2c1` [35 (ff)] returned a T1/2 (mouse, in vivo, ip, 25 mg/kg, pH 2.3) of 1.7 h.
